Curated experimental data: properties

Melting points are in °C. The boiling point refers to atmospheric pressure (760 mmHg), by the definition of the set. The octanol-water partition coefficient is given as log10; larger values mean a more lipophilic compound. Solubility in water is on a log10 molar scale (set defined at 25 °C). Vapor pressure is log10 of mmHg; the set covers 15 to 30 °C, mostly 20 to 25 °C. Henry's law constant (air-water partitioning) is log10 of atm·m3/mol, nominally at 25 °C. The unbound fraction in human plasma runs from 0 (all bound) to 1 (all free). "n/a" marks a cell with nothing listed here.

Listed for CNc1ccccc1C(=O)OC [Methyl N-methylanthranilate]: logP 2.947 and log solubility -2.7 (log10 mol/L) and log VP -1.687 (log10 mmHg). For CCCCCCCCCCCCCCCCOP(=O)([O-])O.[K+] [Potassium hexadecyl hydrogen phosphate] the data give mp 154.9 °C and log solubility -3.26 (log10 mol/L). Listed for CCCCCCCCCCCCCCCCCCCCCCOC(=O)CCCCCCCCCCCCCCCCC [Docosyl stearate]: mp 66.5 °C and log solubility -6.071 (log10 mol/L). OCCC(CCO)c1ccc(N=Nc2ccccc2)cc1 [C.I. Solvent Yellow 58] has mp 134 °C and log solubility -3.957 (log10 mol/L). C[Si](Cl)(Cl)CCC(F)(F)C(F)(F)C(F)(F)C(F)(F)C(F)(F)C(F)(F)F [Dichloromethyl((perfluorohexyl)ethyl)silane] has mp 2.25 °C and log VP -3.523 (log10 mmHg).

For CC(C)(C#N)c1cc(Cn2cncn2)cc(C(C)(C)C#N)c1 [Anastrozole] the data give logP 2.4 and log solubility -3.208 (log10 mol/L). Nc1ccc2cc(S(=O)(=O)O)cc(O)c2c1 [6-Amino-4-hydroxynaphthalene-2-sulfonic acid] has mp 190 °C and BP 458 °C and log solubility -2.883 (log10 mol/L). Listed for CC(=O)[O-].CCN(CC)c1ccc([C+](c2ccc(N(CC)CC)cc2)c2ccc(N(CC)CC)cc2)cc1 [Tris(4-(diethylamino)phenyl)methylium acetate]: logP 1.959 and log VP -5.592 (log10 mmHg). Listed for O=C(O)/C=C\C(=O)OCCOCCOCCOC(=O)/C=C\C(=O)O: mp -32.5 °C and BP 235 °C and log solubility 0.16 (log10 mol/L). Listed for CCOC(=O)N(CC)c1ccccc1 [Carbanilic acid, N-ethyl-, ethyl ester]: mp 16 °C and logP 2.28 and log VP -1.875 (log10 mmHg).

Listed for CC(COc1ccc(C(C)(C)C)cc1)OS(=O)OCCCl (stereo not drawn) [Aramite]: log solubility -5.75 (log10 mol/L) and log VP -6.662 (log10 mmHg) and log H -5.72 (log10 atm·m3/mol). The entry for CC1=CCC(C(C)CC=O)CC1 (stereo in doubt) lists log solubility -2.796 (log10 mol/L) and log VP -0.512 (log10 mmHg). The entry for CC(C)OC(=O)c1ccc(O)cc1 [Isopropylparaben] lists logP 2.613 and log solubility -2.175 (log10 mol/L). The entry for CNC(=O)c1ccc(-c2cnc3ncc(Cc4ccc5ncccc5c4)n3n2)cc1F [Capmatinib] lists mp 252 °C and log solubility -5.92 (log10 mol/L) and log VP -9.98 (log10 mmHg). The entry for C=C(C)C(=O)OCCN1CCOC12CCCCC2 lists logP 3.2 and log VP -3.439 (log10 mmHg).

O=C1c2ccccc2C(=O)N1C[C@H]1CO1 [2-{[(2S)-Oxiran-2-yl]methyl}-1H-isoindole-1,3(2H)-dione] has log solubility -2.187 (log10 mol/L) and log VP -5.108 (log10 mmHg). Listed for CC(=O)CCC1=C(C)CCCC1(C)C [Dihydro-beta-ionone]: logP 4.5 and log solubility -3.655 (log10 mol/L) and log VP -2.502 (log10 mmHg). The entry for CN(C)C(=O)Nc1ccc(Cc2ccc(NC(=O)N(C)C)cc2)cc1 [Urea, N,N''-(methylenedi-4,1-phenylene)bis[N',N'-dimethyl-] lists mp 217 °C and logP 0.88 and log solubility -3.879 (log10 mol/L). For Brc1cnc2[nH]ccc2c1 [5-Bromo-7-azaindole] the data give logP 1.8 and log solubility -3.523 (log10 mol/L). Listed for CC(C)(C)c1cc(CO)cc(C(C)(C)C)c1O [2,6-Di-tert-butyl-4-(hydroxymethyl)phenol]: logP 3.16 and log solubility -4.013 (log10 mol/L).

CCCCCCCCC(C)C=O (stereo not drawn) [2-Methyldecanal] is reported with mp -36 °C and log solubility -4.027 (log10 mol/L) and log VP -1.301 (log10 mmHg). Listed for CN1CCSC1=S [2-Thiazolidinethione, 3-methyl-]: mp 70.28 °C and logP 0.59 and log solubility -1.562 (log10 mol/L) and log VP -2.933 (log10 mmHg). Listed for C[C@]12CCC(=O)C=C1CC[C@H]1[C@@H]3CC[C@](O)(C(=O)CO)[C@@]3(C)C[C@H](O)[C@@]12F [Fludrocortisone]: log solubility -3.431 (log10 mol/L) and fraction unbound 0.25. Listed for CCCCCCCCCCCCCCCCCC[N+](C)(C)C.[Br-] [1-Octadecanaminium, N,N,N-trimethyl-, bromide (1:1)]: logP 3.06 and log solubility -3.616 (log10 mol/L). Listed for CN1CC(=O)N2[C@H](c3ccc4c(c3)OCO4)c3[nH]c4ccccc4c3C[C@@H]2C1=O [Tadalafil]: logP 1.7 and fraction unbound 0.06.

CCCCCCCCCCOC(C)=O [Decyl acetate] is reported with log solubility -4.986 (log10 mol/L) and log VP -1.752 (log10 mmHg). CC(C)CC1CC(C)(O)CCO1 (stereo not drawn) [2-Isobutyl-4-methyltetrahydropyran-4-ol] has logP 1.65 and log solubility -0.789 (log10 mol/L). The entry for CC1CCCC(C)C1N (stereo not drawn) [2,6-Dimethylcyclohexan-1-amine] lists logP 2 and log VP 0.394 (log10 mmHg). For CN1CCCC(CC2c3ccccc3Sc3ccccc32)C1 (stereo not drawn) [Metixene] the data give logP 4.7 and log solubility -6.482 (log10 mol/L). Listed for CN1CCCN=C1COC(=O)C(O)(c1ccccc1)C1CCCCC1 (stereo not drawn) [Oxyphencyclimine]: logP 3.7 and log solubility -3.784 (log10 mol/L).

For CC(C)COC(=O)c1ccc(O)cc1 [Isobutylparaben] the data give logP 3.43 and log solubility -2.962 (log10 mol/L) and log VP -5.275 (log10 mmHg). COCCCNc1nc(NCCCOC)c(N=Nc2sc(C(=O)OC)c(C)c2C#N)c(C)c1C#N has mp 218.1 °C and logP 6.1 and log solubility -8.221 (log10 mol/L). COC(=O)Cc1c(C(=O)OC)sc(N(CC(=O)OC)CC(=O)OC)c1C#N is reported with logP 1.83 and log solubility -3.836 (log10 mol/L). The entry for CCCCCCCCC(CCCCCC)C(=O)O (stereo not drawn) [2-Hexyldecanoic acid] lists BP 331 °C and log solubility -5.71 (log10 mol/L) and log VP -6.211 (log10 mmHg). C[C@H](CCC(=O)NCCS(=O)(=O)O)[C@H]1CC[C@H]2[C@@H]3CC[C@@H]4C[C@H](O)CC[C@]4(C)[C@H]3C[C@H](O)[C@]12C [Taurodesoxycholic acid] is reported with mp 206 °C and log solubility -1.086 (log10 mol/L).

CC1=CC(=O)N(Cc2cccc(CN3C(=O)C=C(C)C3=O)c2)C1=O is reported with mp 85 °C and logP 2.22 and log solubility -3.9 (log10 mol/L) and log VP -6.426 (log10 mmHg).

The last 3 entries again:

| structure (SMILES) | name | mp (°C) | BP (°C) | logP | log solubility (log10 mol/L) | log VP (log10 mmHg) | log H (log10 atm·m3/mol) | fraction unbound |
|---|---|---|---|---|---|---|---|---|
| CCCCCCCCC(CCCCCC)C(=O)O (stereo not drawn) | 2-Hexyldecanoic acid | n/a | 331 | n/a | -5.71 | -6.211 | n/a | n/a |
| C[C@H](CCC(=O)NCCS(=O)(=O)O)[C@H]1CC[C@H]2[C@@H]3CC[C@@H]4C[C@H](O)CC[C@]4(C)[C@H]3C[C@H](O)[C@]12C | Taurodesoxycholic acid | 206 | n/a | n/a | -1.086 | n/a | n/a | n/a |
| CC1=CC(=O)N(Cc2cccc(CN3C(=O)C=C(C)C3=O)c2)C1=O | n/a | 85 | n/a | 2.22 | -3.9 | -6.426 | n/a | n/a |

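The numbers are reported measurements, compiled and curated for the OPERA QSAR suite. The files give a single number for a compound and property, which may rest on several reports. How each value was measured is not recorded, so precision varies. Where a salt, mixture or single isomer is drawn, the source does not say that exactly this form was tested. Unmarked limits or estimates from the upstream databases cannot be ruled out.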

From the experimental data distributed with OPERA 2.9.